Hits are enriched below; roughly 0.73% of the tested compounds scored in any of these assays.
RAD54 inh: inhibitors of human RAD54 branch migration. Q92698. RAD54 Holliday junction branch migration, FAM/BHQ fluorescence. inhibition, % at 10.4 µM. 360,000 compounds, 0.14% hits. AID 602329;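 active means mean normalized replicate activity at least 40 and at least half of replicates scoring 40 or more; inconclusive means only one of the two criteria met; inactive means mean below 40 and under half of replicates reaching 40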;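 further: 0% = median of neutral control wells and 100% = median of positive control wells; inhibitors cause a drop in the FAM fluorescence signal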
RAD52 inh: inhibitors of human RAD52 DNA annealing; recombinant RAD52 DNA annealing, FRET fluorescence; inhibition, % at 18.7 µM; 360,000 compounds, 0.46% hits; AID 651710;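 active means every replicate showing at least 50% inhibition; inconclusive means mean inhibition at least 50% but not in every replicate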
UUG fidelity: modulators of yeast start codon fidelity, primary screen, whole organism, S. cerevisiae, single point, plate reader | S. cerevisiae UUG-firefly luciferase reporter, luminescence/redox ratio | activity score, % at 18.7 µM | hit rate 0.13% among 350,000;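 active = replicate mean at a twofold rise or more, about +100% in these data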;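 note: firefly luciferase made from a UUG start codon reports start codon fidelity; reporter light over untreated wells divided by growth signal over untreated wells; some hits fall short of that in this replicate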
XiGFP reactiv: X-chromosome reactivation activator | 360,000 compounds, 0.055% hits | XiGFP mouse fibroblasts, % GFP-positive cells imaging, 3 d; cells co-treated with 5-aza-dC sensitizer; scaled so ellipticine positive control = 100% | activation, % at 7.58 µM | AID 743238;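 active means mean normalized replicate activation at least 10% and every replicate at or above 10%; inconclusive means only one of the two criteria met; inactive means mean below 10% and not all replicates reach 10%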;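 further: 0% = median of on-plate neutral control wells and 100% = ellipticine 6 µM median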
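Assay system – SV40-immortalized XiGFP fibroblast cells, line 68-5-11 · Buffer or medium – DMEM supplemented with 5-aza-dC as sensitizing agent · Dosing – one concentration, pinned · Benchmarks – positive control ellipticine, 6 µM final · Times – 3 days compound exposure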
E-sel inducer: induces E-selectin expression in human endothelial cells. HUVEC E-selectin immunofluorescence imaging; normalized: neutral wells 0, TNF-alpha wells 100. activation, % at 7.58 µM. 260,000 compounds, 0.37% hits. AID 686992;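 active means mean E-selectin-positive cell signal at least 10% of the positive control, reached in at least 60% of replicates, without over 20% cell loss; inconclusive means no rule given, readout overlaps actives, possibly toxicity-flagged; inactive means the rest, including those meeting only one limit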
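Material: HUVEC primary endothelial cells; Amount: 3,000 cells per well; Dosing: single concentration; Medium: EGM-2 growth medium on 0.1% gelatin-coated wells; Read-out basis: percent E-selectin-positive cells; Signal: immunofluorescence imaging; Control set: TNF-alpha, DMSO.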
RAD52 DNA ctr: binds DNA, flagging false RAD52 inhibitor hits; shares compounds with RAD52 inh; Salmon sperm DNA/acridine orange FP displacement, DNA binding; AC50, µM; 1,000 compounds, 8% hits; AID 652128;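 active means fitted half-maximal concentration for signal loss at or below twice the highest dose tested, in every separate run, actives reach about 64 µM in these data; inconclusive means runs disagree, or flat partial signal loss, or poor fit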
* marks the source's active call; other numbers are inactive results; i = inactive; ? = inconclusive; · = not tested or not shown; ! = a repeat was not active.

No. | smiles | XiGFP reactiv | RAD54 inh | E-sel inducer | UUG fidelity | RAD52 inh | RAD52 DNA ctr
1 | CCc1ccc2nc(N(CCCN(C)C)C(=O)c3ccc(C(=O)c4ccccc4)cc3)sc2c1 | 0 | 21 | 0 | 6 | 49 | ·
2 | Cc1ccc2sc(N(CCCN(C)C)C(=O)c3ccc(S(=O)(=O)N(C)Cc4ccccc4)cc3)nc2c1C | 0 | -5 | · | -2 | 60* | i
3 | CCOc1cccc2sc(N(CCN(C)C)C(=O)c3cc4ccccc4cc3OC)nc12 | 0 | 23 | · | -2 | 64* | i
4 | COc1cc2nc(N(CCCN(C)C)C(=O)c3ccc(C(=O)c4ccccc4)cc3)sc2cc1OC | 0 | 30 | · | -10 | 72* | i
5 | Cc1ccc2sc(N(CCCN(C)C)C(=O)c3ccc(S(=O)(=O)N(C)C)cc3)nc2c1C | 1 | · | 0 | · | 12 | ·
6 | C[C@H](CO)N1C[C@H](C)[C@@H](CN(C)Cc2ccccc2)Oc2ccc(NC(=O)Cn3cnnn3)cc2CC1=O | 0 | -6 | 1 | 12 | 16 | ·
7 | CCOC(=O)C1=C(C(=O)OCC)C2N(Cc3ccc(C#N)cc3)c3ccccc3[C@@]23C[C@@H](C(=O)OC)N(S(=O)(=O)c2ccc(C)cc2)C3=N1 (stereo partly specified) | 0 | · | 0 | · | 4 | ·
8 | O=C(NCC[C@H]1CC[C@@H](NS(=O)(=O)Cc2ccccc2)[C@@H](CO)O1)C1CC1 | 0 | -9 | 0 | 3 | -12 | ·
9 | COc1cccc(NC(=O)N[C@@H]2C=C[C@@H](CC(=O)Nc3ccc(-c4ccccc4)cc3)O[C@@H]2CO)c1 | 1 | -8 | 1 | · | -5 | ·
10 | Cc1ccc(S(=O)(=O)N[C@H]2CC[C@@H](CC(=O)NCCCN(C)C)O[C@@H]2CO)cc1 | 0 | 5 | 1 | · | 7 | ·

Printed as active in RAD52 inh, of those listed so far:
# | mol | UUG fidelity | RAD52 inh | RAD52 DNA ctr
2 | Cc1ccc2sc(N(CCCN(C)C)C(=O)c3ccc(S(=O)(=O)N(C)Cc4ccccc4)cc3)nc2c1C | -2 | 60* | i
3 | CCOc1cccc2sc(N(CCN(C)C)C(=O)c3cc4ccccc4cc3OC)nc12 | -2 | 64* | i
4 | COc1cc2nc(N(CCCN(C)C)C(=O)c3ccc(C(=O)c4ccccc4)cc3)sc2cc1OC | -10 | 72* | i

The list goes on.
No. | smiles | XiGFP reactiv | RAD54 inh | E-sel inducer | UUG fidelity | RAD52 inh | RAD52 DNA ctr
11 | Cn1c(-c2csc(-c3cccc(C(F)(F)F)c3)n2)n[nH]c1=S | 0 | · | 1 | · | 96* | i
12 | Cc1cc(N2CCN(C)CC2)nc2ccc(NC(=S)N3CCN(c4ccc(Cl)cc4)CC3)cc12 | 0 | 20 | 5 | -28 | 90* | i
13 | Cc1cc(N2CCN(C)CC2)nc2ccc(NC(=S)N3CCCCC3)cc12 | 4 | 43 | 4 | -21 | 71* | i
14 | Cc1cc(N2CCN(C)CC2)nc2ccc(NC(=S)N3CCN(c4ccc(F)cc4)CC3)cc12 | 0 | -3 | 0 | -23 | -6 | ·
15 | Cc1cc(N2CCN(C)CC2)nc2ccc(NC(=S)N3CCCCCC3)cc12 | 0 | 18 | 0 | -25 | 52* | i
16 | C[C@@H]1CC=CC[C@H](c2cccc(Cl)c2)NC(=O)[C@@H](Cc2ccccc2)N(C)C(=O)c2ccccc2O1 (mixture of isomers) | 0 | · | · | · | · | ·
17 | COCC(=O)Nc1ccc2c(c1)C(=O)N(C)C[C@@H](OC)[C@H](C)CN(C(=O)Cc1cccnc1)[C@H](C)CO2 | 0 | 1 | 0 | · | -19 | ·
18 | CCN(CC)CCn1c(SCC(=O)Nc2cccc(OC)c2)nc2c(sc3ccccc32)c1=O | 0 | · | 0 | · | -24 | ·
19 | COc1cccc(NC(=O)CSc2nc3c(sc4ccccc43)c(=O)n2CCN(C)C)c1 | 0 | · | · | · | 74* | i
20 | O=C(C1CCC1)N1CC(=O)N2[C@H](CO)[C@@H](c3ccc(C#CCc4ccccc4)cc3)[C@@H]2C1 | 0 | · | 0 | · | 9 | ·
21 | Cc1cc(C(C)(C)CC(C)(C)C)ccc1OCCOCC[N+](C)(C)Cc1ccccc1 | 0 | 33 | 0 | -7 | 91* | ?
22 | CN(C)CC(=O)N1[C@H](CO)[C@@H](c2ccccc2)C12CN(C(=O)c1ccc(F)cc1)C2 | 0 | · | 0 | · | 8 | ·
23 | CCN1CCN(Cc2ccc(NC(=O)c3ccc(C)c(NC(=O)c4nccn4C)c3)cc2C(F)(F)F)CC1 | 1 | 3 | 0 | -9 | 6 | ·
24 | CCN1CCN(Cc2ccc(NC(=O)c3ccc(C)c(NC(=O)c4nccnc4N)c3)cc2C(F)(F)F)CC1 | 0 | 11 | 1 | 1 | 67* | i
25 | CCN1CCN(Cc2ccc(NC(=O)c3ccc(C)c(NC(=O)c4cccc5[nH]ccc45)c3)cc2C(F)(F)F)CC1 | 0 | 7 | 0 | -17 | 89*! | i
26 | Cc1ccc(-c2csc(NC(=O)CSc3nc4ccccc4c(=O)n3CCCN(C)C)n2)cc1 | 0 | · | · | · | 91* | i

Compound activity deposited in PubChem BioAssay by Broad Institute.
